BindingDB's records for doi:10.1124/jpet.301.3.1097 (Harvard University, 2002)
Where a name gives a salt, the structure may show the parent alone.

Amino acid sequences for entries named in this document (tags omitted).
UniProt P23977, whole entry: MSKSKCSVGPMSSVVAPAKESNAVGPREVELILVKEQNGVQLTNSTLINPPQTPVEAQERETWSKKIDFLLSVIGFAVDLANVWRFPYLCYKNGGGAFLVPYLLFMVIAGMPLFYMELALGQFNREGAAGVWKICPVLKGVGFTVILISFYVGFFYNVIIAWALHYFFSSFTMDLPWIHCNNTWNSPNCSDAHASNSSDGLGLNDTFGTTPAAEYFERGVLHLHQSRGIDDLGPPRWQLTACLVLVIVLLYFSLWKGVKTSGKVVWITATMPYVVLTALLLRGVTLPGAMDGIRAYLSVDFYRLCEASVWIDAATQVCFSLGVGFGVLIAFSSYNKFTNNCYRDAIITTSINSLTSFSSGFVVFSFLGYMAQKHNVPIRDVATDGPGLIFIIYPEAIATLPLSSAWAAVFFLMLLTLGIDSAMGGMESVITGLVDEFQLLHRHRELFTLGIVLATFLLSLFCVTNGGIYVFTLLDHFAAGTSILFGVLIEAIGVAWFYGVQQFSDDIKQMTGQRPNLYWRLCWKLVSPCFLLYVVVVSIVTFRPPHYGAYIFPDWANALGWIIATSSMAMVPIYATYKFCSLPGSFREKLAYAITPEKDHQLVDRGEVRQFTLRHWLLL
UniProt P31652, whole entry: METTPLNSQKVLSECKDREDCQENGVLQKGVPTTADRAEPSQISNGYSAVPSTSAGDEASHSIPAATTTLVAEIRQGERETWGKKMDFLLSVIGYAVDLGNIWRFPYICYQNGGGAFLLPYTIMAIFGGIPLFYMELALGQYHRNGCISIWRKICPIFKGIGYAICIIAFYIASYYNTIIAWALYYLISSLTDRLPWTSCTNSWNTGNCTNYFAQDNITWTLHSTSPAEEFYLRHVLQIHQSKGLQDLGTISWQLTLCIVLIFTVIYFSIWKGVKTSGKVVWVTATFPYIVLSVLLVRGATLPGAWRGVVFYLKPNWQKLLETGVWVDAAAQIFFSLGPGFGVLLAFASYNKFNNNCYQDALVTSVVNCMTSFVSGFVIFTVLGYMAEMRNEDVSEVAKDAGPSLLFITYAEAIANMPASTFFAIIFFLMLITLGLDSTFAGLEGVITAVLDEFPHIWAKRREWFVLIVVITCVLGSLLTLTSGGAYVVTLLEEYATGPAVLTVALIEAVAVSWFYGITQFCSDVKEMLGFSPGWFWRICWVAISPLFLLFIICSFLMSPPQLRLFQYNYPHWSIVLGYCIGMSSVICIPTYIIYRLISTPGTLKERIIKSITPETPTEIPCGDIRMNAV

How the values were obtained:
[1] = molecular target: Sodium-dependent dopamine transporter (Rattus norvegicus, UniProt P23977)
[2] = molecular target: Sodium-dependent serotonin transporter (Rattus norvegicus, UniProt P31652)

Ki [1] [µM] | Ki [2] [µM] | SMILES
0.505 | 0.158 | CNCCC(Oc1ccccc1OC)c1ccccc1 (stereo not drawn) [3-(2-methoxyphenoxy)-N-methyl-3-phenylpropan-1-amine]
> 10 | – | CN(C)CCCC1(c2ccc(F)cc2)OCc2cc(C#N)ccc21 (stereo not drawn) [CITALOPRAM HYDROBROMIDE]
